Key:
[1] = molecular target: T1, VCB (VHL:ElonginC:ElonginB) (UniProt P40337 54-213; Q15369 17-112; Q15370 1-104); assay: FP; ternary with PROTAC AB1 (23)
[2] = molecular target: T1, VCB (VHL:ElonginC:ElonginB); assay: FP; ternary with PROTAC AB2 (24)
[3] = molecular target: T1, VCB (VHL:ElonginC:ElonginB); assay: FP; ternary with PROTAC MZ1 (21)
[4] = molecular target: T1, VCB (VHL:ElonginC:ElonginB); assay: FP; ternary with PROTAC OMZ1 (25)
[5] = molecular target: T1, VCB (VHL:ElonginC:ElonginB); assay: FP; ternary with PROTAC ARV-771 (22)

Amino acid sequences for entries named in this document (tags omitted). Residues count along the entry.
UniProt P40337, 54-213, chain 1 of 3: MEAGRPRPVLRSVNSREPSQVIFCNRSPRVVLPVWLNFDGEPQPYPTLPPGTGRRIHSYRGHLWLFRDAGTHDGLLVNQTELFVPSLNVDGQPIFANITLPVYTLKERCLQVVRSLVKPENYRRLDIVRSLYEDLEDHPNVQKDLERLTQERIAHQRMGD
VCB (VHL:ElonginC:ElonginB), UniProt Q15370, 1-104, chain 3 of 3: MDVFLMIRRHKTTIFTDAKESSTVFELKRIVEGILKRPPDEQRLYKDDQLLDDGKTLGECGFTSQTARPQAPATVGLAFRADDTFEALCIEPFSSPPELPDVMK

B1: Brd3-BD2 (306–416) (domain or fragment)
chain: GKLSEHLRYCDSILREMLSKKHAAYAWPFYKPVDAEALELHDYHDIIKHPMDLSTVKRKMDGREYPDAQGFAADVRLMFSNCYKYNPPDHEVVAMARKLQDVFEMRFAKMP
- Kd [1]: 27 nM
- Kd [2]: 20 nM
- Kd [3]: 15 nM
- Kd [4]: 47 nM
- Kd [5]: 7.8 nM

From article PMC8713283 (2021)
